# Results from PubChem BioAssay AID743256 (The Scripps Research Institute Molecular Screening Center, 2014).
# Chains of the proteins cited; added tags and fusions are not shown. Residues count along the entry.
# UniProt O14672, 214-748 limits assumed: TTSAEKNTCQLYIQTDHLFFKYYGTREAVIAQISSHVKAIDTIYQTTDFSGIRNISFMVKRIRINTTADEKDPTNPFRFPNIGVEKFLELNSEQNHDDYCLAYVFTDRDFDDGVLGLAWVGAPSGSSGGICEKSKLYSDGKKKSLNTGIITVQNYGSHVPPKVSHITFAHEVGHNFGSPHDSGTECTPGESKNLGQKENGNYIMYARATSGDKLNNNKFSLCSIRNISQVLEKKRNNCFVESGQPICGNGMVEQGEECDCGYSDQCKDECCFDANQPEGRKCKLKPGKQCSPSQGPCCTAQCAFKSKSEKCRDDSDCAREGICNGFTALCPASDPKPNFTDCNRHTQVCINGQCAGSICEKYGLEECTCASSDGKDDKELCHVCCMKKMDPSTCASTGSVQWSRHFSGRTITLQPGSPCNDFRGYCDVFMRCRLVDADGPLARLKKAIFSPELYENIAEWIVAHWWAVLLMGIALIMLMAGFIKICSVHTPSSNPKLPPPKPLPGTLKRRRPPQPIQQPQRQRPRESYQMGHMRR
# The list shows a part of the results, in another mix than the full data. Activity calls are given as the source filed them.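 Rule for the calls: active = mean inhibition over the triplicate runs exceeds the activity threshold set in the earlier primary screen (cut at about 20% in these data); inactive = the rest.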
# Biological target: Disintegrin and metalloproteinase domain-containing protein 10 (Homo sapiens) (UniProt O14672)
# Assay: ADAM10 inhibitors, counter-screen for ADAM17 exosite inhibitor project, biochemical, FRET, human ADAM10 (AID 743256);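 note: 0% = DMSO wells and 100% = marimastat wells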
# Settings: recombinant ADAM10, EDANS/DABCYL FRET peptide cleavage, 3 h; at 6.95 µM; active compounds read high
# In short: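 Test system: human ADAM10 metalloprotease enzyme in a cell-free biochemical assay. Reagent: DM2 FRET peptide substrate. Timing: 30 min preincubation and 3 h reaction at 25 °C. Read-out basis: percent inhibition scaled between DMSO and marimastat control wells. Control set: 1 µM marimastat (high) and DMSO (low). Detection: FRET fluorescence readout.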
row,Structure (SMILES),inhibition
1,CC(C)(C)n1nnnc1C(c1cccc2ccccc12)N1CCC(n2c(=O)[nH]c3ccccc32)CC1 (stereo unspecified),active: 39.8%
